Laboratory results taken from BindingDB's records for doi:10.1021/acs.jmedchem.6b01578 (University of Bologna, 2017).

Test: Agonist activity at recombinant human CB1 receptor expressed in CHO-K1 cells assessed as increase in cAMP accumulation after 20 mins by HTRF assay

Structure (SMILES): NC(=O)c1cccc(-c2ccc(OC(=O)NCCCCN3CCN(c4cccc(Cl)c4Cl)CC3)cc2F)c1
- EC50: 15 nM
